This is an account of results in ChEMBL document CHEMBL4177755, “Combating Drug-Resistant Fungi with Novel Imperfectly Amphipathic Palindromic Peptides” (J Med Chem, 2018).

In this test the test system is Escherichia coli. Nature of the test: Disruption of cytoplasmic membrane electrical potential in Escherichia coli ATCC 25922 at MBC after 800 secs by DiSC3-5 dye-based fluorescence spectrophotometric method. The test is classed as functional, organism-based. An outline of the steps:
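Cells were loaded with the membrane potential-sensitive dye DiSC3-5, and its release on peptide treatment (various concentrations, including 1× MBC/MFC) was monitored as increasing fluorescence over 800 s.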

The structures appear in SMILES notation. Calls of active or inactive are those of the source. The rule behind the calls is not given here.

With `O=C(O)c1cn(C2CC2)c2cc(N3CCNCC3)c(F)cc2c1=O` [CIPROFLOXACIN], the result was inactive.
